Molecular target: T1, Cytochrome P450 26A1 (Homo sapiens, UniProt O43174)
T1 sequence (O43174 whole entry): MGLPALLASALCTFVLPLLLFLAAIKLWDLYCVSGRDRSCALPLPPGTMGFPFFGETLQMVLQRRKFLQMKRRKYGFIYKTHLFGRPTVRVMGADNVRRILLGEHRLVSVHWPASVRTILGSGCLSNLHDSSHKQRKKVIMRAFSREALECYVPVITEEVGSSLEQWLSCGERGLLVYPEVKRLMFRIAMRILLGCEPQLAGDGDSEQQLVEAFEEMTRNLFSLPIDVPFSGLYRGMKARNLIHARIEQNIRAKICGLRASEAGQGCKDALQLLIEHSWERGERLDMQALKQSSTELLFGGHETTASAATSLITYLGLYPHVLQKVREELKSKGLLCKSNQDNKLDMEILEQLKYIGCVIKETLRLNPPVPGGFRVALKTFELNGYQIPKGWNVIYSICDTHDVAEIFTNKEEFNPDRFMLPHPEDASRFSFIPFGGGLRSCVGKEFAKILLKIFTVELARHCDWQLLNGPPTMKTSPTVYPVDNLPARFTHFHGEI
Assay: Inhibition of CYP26A1 in human MCF7 cell microsomes using [3H]ATRA after 1 hr by scintillation counting
Set-up: species or system Microsome
Procedure, shortened: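 Cell-free assay on MCF7 CYP26A1 microsomes with [11,12-3H]all-trans-retinoic acid as substrate. IC50 taken from the best fit of a four-point dose-response curve. Coefficient of variation across 8 repeat experiments for one compound was 15.5%.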

IC50: 540 nM
Structure (SMILES): Clc1cccc(C(c2ccc3[nH]cnc3c2)n2ccnc2)c1 (stereo unspecified) [LIAROZOLE]

— ChEMBL document CHEMBL1764976, “Small molecule inhibitors of retinoic acid 4-hydroxylase (CYP26): synthesis and biological evaluation of imidazole methyl 3-(4-(aryl-2-ylamino)phenyl)propanoates” (J Med Chem, 2011)
